Molecular target: high affinity phorbol-ester binding sites (PKC) (Rattus norvegicus, UniProt P68403)
Conditions: read-out: affinity constant (Kd) of phorbol ester binding; R6-PKC3 cell line; intact cells; Scatchard; approximately the same in both cell lines

Chains of the proteins cited; added tags and fusions are not shown. Residues count along the entry.
UniProt P68403, 2-671: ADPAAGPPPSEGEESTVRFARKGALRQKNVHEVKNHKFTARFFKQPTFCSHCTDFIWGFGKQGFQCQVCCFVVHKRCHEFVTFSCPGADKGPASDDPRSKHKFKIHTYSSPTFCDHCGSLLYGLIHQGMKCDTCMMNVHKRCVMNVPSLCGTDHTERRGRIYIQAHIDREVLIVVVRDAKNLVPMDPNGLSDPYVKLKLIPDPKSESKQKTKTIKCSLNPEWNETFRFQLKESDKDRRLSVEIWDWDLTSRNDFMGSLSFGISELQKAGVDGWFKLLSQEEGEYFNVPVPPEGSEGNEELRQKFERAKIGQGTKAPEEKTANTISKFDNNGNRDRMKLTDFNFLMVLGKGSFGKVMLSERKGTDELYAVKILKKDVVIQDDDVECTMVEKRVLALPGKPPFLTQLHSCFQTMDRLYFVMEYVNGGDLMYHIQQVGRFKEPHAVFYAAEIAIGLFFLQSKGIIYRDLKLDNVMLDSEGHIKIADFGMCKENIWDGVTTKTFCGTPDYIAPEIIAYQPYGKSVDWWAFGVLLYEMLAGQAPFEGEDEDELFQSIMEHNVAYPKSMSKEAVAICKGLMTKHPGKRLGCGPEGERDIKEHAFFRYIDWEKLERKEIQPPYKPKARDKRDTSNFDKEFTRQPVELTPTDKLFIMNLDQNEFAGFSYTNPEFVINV

Q: How did the Kd turn out when CCCC(=O)O[C@@H]1[C@@H](C)[C@@]2(O)[C@@H](C=C(CO)C[C@]3(O)C(=O)C(C)=C[C@@H]23)[C@@H]2C(C)(C)[C@]12OC(=O)CCC [3H-PDBu] was run?
A: 16 nM

— patent publication US20060019329A1, “Method of screening for protein inhibitors and activators” (priority 1988, published 2006)
